Assay results taken from patent US20140121168A1, “ANTAGONISTS OF TRPV1 RECEPTOR” (ANTAGONISTS OF TRPV1 RECEPTOR, priority 2011, published 2014).

Chains of the proteins cited; added tags and fusions are not shown.
UniProt Q8NER1, whole entry: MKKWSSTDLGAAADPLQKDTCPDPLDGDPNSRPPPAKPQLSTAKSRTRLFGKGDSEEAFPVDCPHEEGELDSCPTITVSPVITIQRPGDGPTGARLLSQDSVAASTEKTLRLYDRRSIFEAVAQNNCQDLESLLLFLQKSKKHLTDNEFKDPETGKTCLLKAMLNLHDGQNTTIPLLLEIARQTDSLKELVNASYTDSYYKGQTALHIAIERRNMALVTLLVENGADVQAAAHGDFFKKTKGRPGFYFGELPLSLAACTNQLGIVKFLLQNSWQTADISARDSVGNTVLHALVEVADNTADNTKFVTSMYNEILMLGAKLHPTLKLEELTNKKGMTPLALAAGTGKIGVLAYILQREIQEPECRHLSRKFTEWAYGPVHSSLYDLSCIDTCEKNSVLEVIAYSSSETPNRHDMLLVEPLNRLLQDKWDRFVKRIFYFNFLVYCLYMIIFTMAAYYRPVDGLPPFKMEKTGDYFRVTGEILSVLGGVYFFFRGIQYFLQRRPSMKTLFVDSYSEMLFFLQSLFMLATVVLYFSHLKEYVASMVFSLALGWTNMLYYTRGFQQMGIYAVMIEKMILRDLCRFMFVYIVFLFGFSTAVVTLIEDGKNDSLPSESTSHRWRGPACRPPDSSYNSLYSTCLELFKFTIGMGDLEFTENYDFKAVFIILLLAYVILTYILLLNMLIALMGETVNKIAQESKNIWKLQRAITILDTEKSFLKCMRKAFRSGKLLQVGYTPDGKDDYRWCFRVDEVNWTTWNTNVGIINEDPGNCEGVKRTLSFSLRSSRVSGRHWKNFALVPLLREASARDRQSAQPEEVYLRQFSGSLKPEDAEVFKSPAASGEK

Molecular target: TRPV1 (Homo sapiens, UniProt Q8NER1)
Test: TRPV1 assays, inhibition of capsaicin response (cell line not stated for the IC50 values)

C/C=C1\NC(=O)[C@H](C)NC(=O)[C@H](C(C)C)NC(=O)[C@H](NC(=O)[C@H](Cc2ccccc2)NC(=O)[C@@H](CC(C)C)NC(=O)[C@@H](Cc2ccccc2)NC(C)=O)[C@@H](C)OC1=O [compound 1, A-3302-B]
IC50: 1.32 mM
